# A selection: hits, their analogues and other compounds. The true share with any hit is near 4.2%.
# MC4R antagonist: MC4R antagonists of cAMP signaling, primary screen, cell-based, TR-FRET, antagonist arm of biased-ligand search; Melanocortin receptor 4 (Homo sapiens), P32245; MC4R-expressing cells, MTII-stimulated cAMP, LANCE TR-FRET; inhibition, % at 6.5 µM; 360,000 tested, 0.48% active; AID 540295, 2011;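 active = inhibition above its plate's cutoff, the mean of tested wells on that plate plus 3 SD, cut at about 29% in these data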;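 also: 0% = Melanotan II alone and 100% = Melanotan II plus saturating MCL0020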
#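 Assay system: U2OS-MC4R stable cell line; Also added: Melanotan II; Technique: Eu-cAMP/anti-cAMP TR-FRET, emission 671 nm; Times: 30-min compound, 1-h challenge, 1-h detection, room temperature.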
# UUG fidelity: alters start codon recognition fidelity in yeast. S. cerevisiae UUG-firefly luciferase reporter, luminescence/redox ratio. 350,000 tested, 0.13% active. activity score, % at 18.7 µM. AID 602363;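 active means replicate mean at a twofold rise or more, about +100% in these data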;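 further: firefly luciferase made from a UUG start codon reports start codon fidelity; reporter light over untreated wells divided by growth signal over untreated wells; some hits fall short of that in this replicate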
# NALP1 yeast inh: NALP1 inflammasome inhibitors in reconstituted yeast, colorimetric, S. cerevisiae, triplicate retest; S. cerevisiae NALP1/ASC/caspase-1 growth, X-gal OD620, 72 h; inhibition, % at 10 µM; 280,000 tested, 0.61% active; in the data active = inhibition mostly above about 24%, no sharp cut-off; inactive = mostly below about 32%
# ALR H2O2 inh: inhibitors of human ALR sulfhydryl oxidase, primary screen, biochemical, H2O2 detection, HRP-luminol luminescence, single point | AID 485317, 2010 | inhibition, % (test concentration not listed) | purified ALR, DTT oxidation | FAD-linked sulfhydryl oxidase ALR (Homo sapiens), P55789 | hit rate 3.8% among 290,000;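 active = mean and each replicate at 75% or more; inconclusive = only one of the two met; inactive = neither met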;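 also: stock transfer was 7.5 nL into about 7.5 µL; 0% = neutral wells and 100% = wells with inactivated enzyme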
# HDAC3 inhib: HDAC3 deacetylase inhibitors, primary screen, biochemical, fluorescence, cell-free homogeneous; Histone deacetylase 3 (Homo sapiens), O15379; recombinant HDAC3, fluorogenic peptide/trypsin coupled; inhibition, % at 8.3 µM; 320,000 tested, 0.15% active; AID 2718, 2010; in the data active = inhibition above about 26%, passing the limit was not always enough; inconclusive = no clear call, values can overlap the other calls
# MC4R ag barr: MC4R agonists recruiting beta-arrestin, primary screen, cell-based, luminescence, agonist arm of biased-ligand search; 360,000 tested, 0.98% active; U2OS MC4R beta-arrestin complementation; percent of melanotan II response, DMSO zero; activation, % at 8.9 µM; Melanocortin receptor 4 (Homo sapiens), P32245;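 active = activation above a per-plate cutoff, the mean activation of sample wells on that plate plus 3 SD, cut at about 8% in these data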
# MC4R barr ag: MC4R beta-arrestin agonists, retest, confirmation, cell-based, luminescence, U2OS | 2,400 tested, 31% active | activation, % at 8.9 µM | AID 602192, 2012 | U2OS MC4R beta-arrestin recruitment; scaled DMSO 0%, Melanotan II 100% | shares compounds with MC4R ag barr;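 active = mean activation across replicates above the hit cutoff set in the earlier primary screen, cut at about 8% in these data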
# MOR DOR agonist: agonists of MOR-DOR heterodimerization, counter-screen for MC4R biased agonist project, cell-based, luminescence | shares compounds with MC4R ag barr | U2OS PathHunter beta-arrestin, beta-gal luminescence; percent of deltorphin B response, DMSO zero | activation, % at 9.2 µM | 2,400 tested, 5.8% active;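 active = mean activation across replicates exceeds the hit threshold derived in the earlier primary screen, cut at about 18% in these data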;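 also: 100% = deltorphin B at 0.9 µM final and 0% = DMSO alone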
# * hit, by the source's call; ? = inconclusive; / = no result given.
1) COc1ccc(S(=O)(=O)N[C@@H]2CC[C@H](CCNC(=O)c3ccccc3F)O[C@@H]2CO)cc1
2) FC(F)(F)c1cccc(NC(=S)NNC(=S)Nc2cccc(C(F)(F)F)c2)c1
3) FC(F)(F)c1cccc(NC(=S)NC(c2ccccc2)c2ccccc2)c1
4) c1ccc(-c2nc(-c3cccs3)[nH]c2-c2ccccc2)cc1
5) C=CCNC(=S)N/N=C/c1ccc(-c2cc(Cl)ccc2Cl)o1
6) C=CCNC(=S)N/N=C/c1ccc(-c2ccc(Cl)cc2Cl)o1
7) O=C(CSc1nc2cc3ccccc3cc2[nH]1)Nc1ccc(F)cc1
8) COc1ccc(NC(=O)CSc2nc3ccc(OC)cc3[nH]2)cc1

By UniProt entry, the sequences of proteins in these tests, tags left out.
Melanocortin receptor 4 (Homo sapiens), P32245, UniProt P32245, whole entry, looked up: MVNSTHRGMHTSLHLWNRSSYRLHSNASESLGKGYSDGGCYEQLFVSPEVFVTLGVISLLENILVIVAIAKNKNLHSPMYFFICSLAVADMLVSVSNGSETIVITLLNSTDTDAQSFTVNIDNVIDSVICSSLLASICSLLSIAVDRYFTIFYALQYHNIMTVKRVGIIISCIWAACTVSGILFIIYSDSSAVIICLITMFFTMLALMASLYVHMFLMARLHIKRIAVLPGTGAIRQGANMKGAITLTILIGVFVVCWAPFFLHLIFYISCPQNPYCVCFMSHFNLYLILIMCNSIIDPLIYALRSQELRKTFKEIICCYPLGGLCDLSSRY

assay / compound	1	2	3	4	5	6	7	8
MC4R antagonist	/	/	10	7	-5	0	-7	3
UUG fidelity	-4	/	-14	28	-10	-3	/	-20
NALP1 yeast inh	/	-1	21	8	4	/	/	/
ALR H2O2 inh	/	-1	48	33	-6	-3	-5	/
HDAC3 inhib	/	?	3	-3	6	-6	3	8
MC4R ag barr	/	/	10*	9.6*	1	10*	9.6*	0
MC4R barr ag	/	/	6	3	/	7	2	/
MOR DOR agonist	/	/	10	5	/	5	6	/

9) CO[C@@H]1CN(C)C(=O)c2ccc(NC(=O)Nc3cccc(F)c3)cc2OC[C@H](C)N(C(=O)Nc2c(C)noc2C)C[C@@H]1C
10) COc1cc(OC)c2c(c1)O/C(=C\c1ccccc1)C2=O
11) O=C1Nc2ccccc2O/C1=C\c1ccccc1
12) COc1ccc2cc(-c3cc(C(=O)OCC(=O)Nc4c(C)n(C)n(-c5ccccc5)c4=O)c4ccccc4n3)ccc2c1
13) CC(=O)N(C)C[C@H]1Oc2cc(C#Cc3ccncc3)ccc2S(=O)(=O)N([C@@H](C)CO)C[C@@H]1C
14) CC(C)(C)C1CCC(CN2C(Nc3ccccc3)=NC[C@@H]2Cc2ccccc2)CC1 (stereo partly drawn)
15) CCN1C(Nc2ccccc2)=NC[C@@H]1Cc1ccccc1
16) C[C@H]1CN([C@@H](C)CO)S(=O)(=O)c2ccc(-c3cccnc3)cc2O[C@@H]1CN(C)C(=O)C1CCCCC1

assay / compound	9	10	11	12	13	14	15	16
MC4R antagonist	/	-2	11	0	/	1	4	/
UUG fidelity	24	16	-10	-11	1	-4	-11	9
NALP1 yeast inh	/	/	1	20	/	/	-8	/
ALR H2O2 inh	/	14	-4	/	/	-11	2	/
HDAC3 inhib	/	-1	-2	/	/	12	-5	/
MC4R ag barr	/	-2	13*	21*	/	14*	-2	/
MC4R barr ag	/	/	1	5	/	11*	/	/
MOR DOR agonist	/	/	5	3	/	16	/	/

# Part of the list above in order of heavy-atom count, largest number first.
9) CO[C@@H]1CN(C)C(=O)c2ccc(NC(=O)Nc3cccc(F)c3)cc2OC[C@H](C)N(C(=O)Nc2c(C)noc2C)C[C@@H]1C
16) C[C@H]1CN([C@@H](C)CO)S(=O)(=O)c2ccc(-c3cccnc3)cc2O[C@@H]1CN(C)C(=O)C1CCCCC1
15) CCN1C(Nc2ccccc2)=NC[C@@H]1Cc1ccccc1

assay / compound	9	16	15
MC4R antagonist	/	/	4
UUG fidelity	24	9	-11
NALP1 yeast inh	/	/	-8
ALR H2O2 inh	/	/	2
HDAC3 inhib	/	/	-5
MC4R ag barr	/	/	-2
MC4R barr ag	/	/	/
MOR DOR agonist	/	/	/

# Further structures follow:
17) NS(=O)(=O)c1ccc(CCNc2nc3c(-c4cccc(F)c4)nnn3c3ccccc23)cc1
18) C[C@@H]1CCCCO[C@H](CN(C)C(=O)C2CCCCC2)[C@H](C)CN([C@H](C)CO)C(=O)c2cc(NS(C)(=O)=O)ccc2O1
19) O=C(Nc1ccccc1)N1C[C@@H]2[C@H](c3ccccc31)[C@@H](CO)N2C(=O)c1ccccc1F
20) COc1ccc(-c2onc(C)c2-c2ccc(C(=O)OC(C)C)o2)c(O)c1
21) C[C@@H]1CN([C@H](C)CO)C(=O)c2cc(NC(=O)Nc3ccc(C(F)(F)F)cc3)ccc2O[C@H]1CN(C)CC1CCCCC1

assay / compound	17	18	19	20	21
MC4R antagonist	-51	/	/	14	/
UUG fidelity	-4	10	-8	-3	-15
NALP1 yeast inh	19	/	/	4	/
ALR H2O2 inh	-5	/	/	7	/
HDAC3 inhib	-22	/	/	10	/
MC4R ag barr	15*	/	/	12*	/
MC4R barr ag	11*	/	/	7	/
MOR DOR agonist	13	/	/	9	/

# From PubChem BioAssay
